{"source": "patent US6191144A", "about": "“Method of using angiotensin converting enzyme inhibitor to stimulate angiogenesis” (priority 1999, dated 2001)", "assay": "Body weight (Table 1)"}
{"substance": "VEGF", "values": [{"measurement": "Body Weight", "setting": "Day 10", "value": "4.08 ± 0.06", "unit": "kg"}, {"measurement": "Body Weight", "setting": "Day 40", "value": "4.01 ± 0.08", "unit": "kg"}]}
